{"sequences": {"note": "Protein sequences, listed by entry. Tags and fused reporters are not part of them. Residues count along the entry.", "UniProt Q16620, 32-822 limits assumed": "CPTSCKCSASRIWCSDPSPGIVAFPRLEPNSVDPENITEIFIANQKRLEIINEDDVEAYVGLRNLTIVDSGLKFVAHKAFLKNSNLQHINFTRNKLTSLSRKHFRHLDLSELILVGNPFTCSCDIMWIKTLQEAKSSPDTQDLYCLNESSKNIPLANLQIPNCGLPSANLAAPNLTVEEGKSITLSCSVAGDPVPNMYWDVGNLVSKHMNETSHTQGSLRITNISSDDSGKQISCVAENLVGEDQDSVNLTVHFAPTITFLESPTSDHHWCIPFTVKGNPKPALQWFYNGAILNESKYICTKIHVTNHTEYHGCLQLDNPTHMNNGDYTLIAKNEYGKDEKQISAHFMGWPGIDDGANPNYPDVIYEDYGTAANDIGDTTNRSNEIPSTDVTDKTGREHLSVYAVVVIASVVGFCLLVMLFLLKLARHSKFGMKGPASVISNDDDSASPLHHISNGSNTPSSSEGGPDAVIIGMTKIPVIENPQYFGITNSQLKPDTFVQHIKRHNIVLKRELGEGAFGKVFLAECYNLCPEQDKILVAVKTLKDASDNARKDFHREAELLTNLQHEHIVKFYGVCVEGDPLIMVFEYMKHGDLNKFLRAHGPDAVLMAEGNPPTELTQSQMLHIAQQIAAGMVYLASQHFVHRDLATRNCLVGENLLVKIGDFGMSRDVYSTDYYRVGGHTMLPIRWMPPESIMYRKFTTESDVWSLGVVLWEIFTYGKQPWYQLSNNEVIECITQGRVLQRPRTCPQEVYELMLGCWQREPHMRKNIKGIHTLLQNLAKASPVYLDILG", "UniProt P04629, 33-796 limits assumed": "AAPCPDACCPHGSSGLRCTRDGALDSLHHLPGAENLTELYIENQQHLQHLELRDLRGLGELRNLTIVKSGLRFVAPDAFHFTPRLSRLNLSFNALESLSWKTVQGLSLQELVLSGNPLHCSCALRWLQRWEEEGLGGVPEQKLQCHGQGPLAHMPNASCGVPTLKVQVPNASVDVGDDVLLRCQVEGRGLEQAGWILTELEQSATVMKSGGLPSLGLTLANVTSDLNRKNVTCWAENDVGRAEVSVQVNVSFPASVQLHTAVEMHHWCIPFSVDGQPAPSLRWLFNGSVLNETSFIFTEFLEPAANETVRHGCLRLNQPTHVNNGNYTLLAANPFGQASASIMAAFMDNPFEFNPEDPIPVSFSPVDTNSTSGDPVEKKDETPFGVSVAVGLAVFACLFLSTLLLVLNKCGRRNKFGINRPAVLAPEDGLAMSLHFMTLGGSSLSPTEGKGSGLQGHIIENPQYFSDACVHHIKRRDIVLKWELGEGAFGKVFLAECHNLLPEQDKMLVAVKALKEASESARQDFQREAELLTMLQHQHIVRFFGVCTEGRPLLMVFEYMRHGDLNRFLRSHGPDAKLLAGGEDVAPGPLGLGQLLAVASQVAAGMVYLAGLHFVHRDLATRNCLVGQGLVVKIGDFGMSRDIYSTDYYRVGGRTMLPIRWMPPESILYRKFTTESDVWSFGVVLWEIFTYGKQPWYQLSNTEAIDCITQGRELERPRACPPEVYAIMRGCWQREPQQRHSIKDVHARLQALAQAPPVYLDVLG"}, "source": "patent US9067914B1", "about": "“Tropomyosin-related kinase (TRK) inhibitors” (Genzyme Corporation, priority 2013, dated 2015)", "key": {"[1]": {"molecular_target": "TrkB (Homo sapiens (Human), UniProt Q16620)", "assay": "TrkB activity, off-chip mobility shift assay (LabChip 3000)", "format": "biochemical", "conditions": "read-out: IC50 TrkB; 70 μM ATP (ATP Km); n/d = none detected"}, "[2]": {"molecular_target": "TrkA (Homo sapiens (Human), UniProt P04629)", "assay": "TrkA activity, off-chip mobility shift assay (LabChip 3000)", "format": "biochemical", "conditions": "read-out: IC50 TrkA; 55 μM ATP (ATP Km); n/d = none detected"}}}
{"compound": "COc1ccc(COc2ccc(Cn3cnc4cc(-c5nnc(C6CCNCC6)o5)ccc43)cc2OC)cn1", "values": [{"measurement": "IC50", "setting": "[1]", "result": 439, "unit": "nM"}, {"measurement": "IC50", "setting": "[2]", "result": 434, "unit": "nM"}]}
